Results taken from patent US20230393120A1, “A HUMAN VASCULAR INJURY-ON-A-CHIP MODEL OF HEMOSTASIS” (THE TRUSTEES OF THE UNIVERSITY OF PENNSYLVANIA, priority 2020, published 2023).

Legend:
[1] = tested on: tissue factor expression in endothelial cells (HUVECs); experiment: Endothelial tissue factor expression after TNF-α treatment (immunostaining, confocal); assay type: cell-based, human; conditions: overnight treatment with 1 ng/ml
Description: (§1) The disclosed technique was further used to test whether the location of tissue factor influences the formation of competent hemostatic plugs in our system. A condition in which tissue factor was localized on the endothelial lining of the intravascular channel was created, rather than being embedded in the collagen matrix by treating the endothelium with tumor necrosis factor (TNF)-α, which is a known inducer of endothelial tissue factor expression. […] Bleeding caused by the puncture injury in this model triggered the hemostatic response and led to the aggregation of platelets at the injury site (FIG. 3F). […] The increased thrombotic activities can be explained by the high levels of tissue factor present on the TNF-α-treated endothelial surface.
Preparation of blood vessel-on-a-chip: Assembled devices were autoclaved for sterilization prior to cell culture. To increase the strength of interfacial adhesion between collagen gel and PDMS, dopamine hydrochloride (Sigma-Aldrich) solution (2.0 mg/mL w/v in 10 mM Tris-HCl buffer, pH 8.5) was injected into the middle compartment of the device and incubated for 2 hours at room temperature. Next, 6 mg/ml of rat-tail collagen type I containing 2.5% (v/v) lipidated tissue factor (Dade Innovin Reagent, Siemens) was introduced into the polydopamine-treated chamber and polymerized at 37° C. for 30 minutes. […]

[2] = tested on: platelet and fibrin accumulation at the injury site, human whole blood; experiment: Puncture injury in TNF-α-treated devices with tissue factor-free collagen gel, hemostatic response; assay type: cell-based; conditions: 1 ng/ml overnight, no tissue factor in collagen gel
Description: as §1
Preparation of blood vessel-on-a-chip: Assembled devices were autoclaved for sterilization prior to cell culture. To increase the strength of interfacial adhesion between collagen gel and PDMS, dopamine hydrochloride (Sigma-Aldrich) solution (2.0 mg/mL w/v in 10 mM Tris-HCl buffer, pH 8.5) was injected into the middle compartment of the device and incubated for 2 hours at room temperature. […]
Fluorescently-labeled antibodies to CD61, P-selectin, and fibrin were added to the blood prior to perfusion through the microfluidic device to visualize platelet deposition, platelet activation, and fibrin accumulation. Different biomarkers of the hemostatic response, such as platelet accumulation and fibrin formation at the injury site, were monitored using real-time fluorescence imaging using the Zeiss Axio Zoom.V16, objective PlanNeoFluor Z 1.0×, with a total 75×, using the Axiocam 506 camera. […]
Measurement of sum and mean fluorescence intensity: For each image capture, 80 pm of the intravascular and extravascular side of the injury was analyzed—40 pm below the gel boundary and 40 pm above. […] The total intensity was quantified, and for P-selectin, the mean fluorescence intensity (MFI) within the platelet mask was calculated for the total volume that was analyzed. […]

tumor necrosis factor (TNF)-α [TNF-α]
expression of tissue factor in the endothelial cells [1]: robust and widespread expression | formation of plugs sealing the opening of the injury [2]: failed to form plugs | deposition and activation of platelets ([2]; vs control without TNF-α): substantially increased | fibrin production and accumulation ([2]; vs control without TNF-α): more pronounced
